Assay results taken from PubChem BioAssay AID1688 (National Center for Advancing Translational Sciences (NCATS), 2009).
The entries are a selection whose mix differs from that of the whole data set. Some of these compounds have results that are not shown, active ones among them. Inconclusive results are not listed. Active and inactive are the calls of the source. The call rests on the fitted dose curve; in most records, active means well fitted inhibition curve with a large enough effect; inconclusive means small, poorly fitted or top-dose-only effect, or effect the other way; inactive means no such curve, though single readings can be large or run the other way.

Assay: qHTS Multiplex Assay to Identify Dual Action Probes in a Cell Model of Huntington: Aggregate Formation (GFP); further: nearly all actives have a fitted effect of over 60% in size
Conditions: PC12 HttQ103-GFP aggregates, Acumen cytometry, 40 h; at 46.1 µM (top of the series) unless noted
On the % scale 0 is the no-effect control and ±100 the full control effect.

Structure (SMILES)	activity change, negative = inhibition
COc1cccc(C(=O)NCC2(N3CCCCC3)CCCCC2)c1	inactive: -12.1%
CN(C)c1cccc(C(=O)NCC2(N(C)C)CCCCC2)c1	inactive: 6.82%
COc1ccc(Br)c(C(=O)NCC2(N3CCCCC3)CCCCC2)c1	inactive: 6.92% [at 9.22 µM]
O=C(OC1CN2CCC1CC2)C(CO)(c1ccccc1)c1ccccc1 (configuration not stated)	inactive: -7.64%
CCN(CC)CC(C)C(C)OC(=O)C(O)(c1ccccc1)c1ccccc1 (configuration not stated)	inactive: -20.9% [at 9.22 µM]
CC(C)N1C(=O)CC2(CCN(CCOC(=O)C(O)(c3ccccc3)c3ccccc3)CC2)C1=O	inactive: 2.67%
O=C(NCC1(N2CCCCC2)CCCCC1)c1cc([N+](=O)[O-])ccc1Cl	inactive: -30%
CCN1CCCC(OC(=O)C2(O)c3ccccc3C=Cc3ccccc32)C1 (configuration not stated)	inactive: -11.4%
C=CCN1CCN(CCOC(=O)C(O)(c2ccccc2)c2ccccc2)CC1	inactive: -6.86% [at 9.22 µM]
CN1CCCC(OC(=O)C(O)(c2ccccc2)c2ccccc2)C1 (configuration not stated)	inactive: 1.75%
Cc1ccccc1C(=O)NCC1(N2CCCCC2)CCCCC1	inactive: 24.6%
CN(C)C1CCCC1OC(=O)C(O)(c1ccccc1)c1ccccc1 (configuration not stated)	inactive: -3.58%
